Source: US9274101B2 (BIOLOG, Inc., priority 2001, dated 2016)

Legend:
[1] = test system: E. coli MG1655; assay: Nitrogen source testing, EN panel; format: cell-based, Escherichia coli; conditions: 3.0 mM nitrogen source, 35° C., 48 hours
[2] = test system: E. coli MG1655; assay: Phosphorus and sulfur source testing, EPS panel; format: cell-based, Escherichia coli; conditions: 1.0 mM phosphorus source, 35° C., 48 hours

## parabanic acid
[1]
  suitability as nitrogen source (growth, purple color): not suitable

## trimetaphosphate
[2]
  suitability as phosphorus source (growth, purple color): positive
